Source: patent US10220069B2, “Compositions and methods for treating diabetes” (THE JOHNS HOPKINS UNIVERSITY, priority 2014, dated 2019)

Sequences of proteins named here, by UniProt entry; tags and fusion partners are left off. A change or cut given only in a name is not applied to a line headed by its entry.
UniProt Q91V45: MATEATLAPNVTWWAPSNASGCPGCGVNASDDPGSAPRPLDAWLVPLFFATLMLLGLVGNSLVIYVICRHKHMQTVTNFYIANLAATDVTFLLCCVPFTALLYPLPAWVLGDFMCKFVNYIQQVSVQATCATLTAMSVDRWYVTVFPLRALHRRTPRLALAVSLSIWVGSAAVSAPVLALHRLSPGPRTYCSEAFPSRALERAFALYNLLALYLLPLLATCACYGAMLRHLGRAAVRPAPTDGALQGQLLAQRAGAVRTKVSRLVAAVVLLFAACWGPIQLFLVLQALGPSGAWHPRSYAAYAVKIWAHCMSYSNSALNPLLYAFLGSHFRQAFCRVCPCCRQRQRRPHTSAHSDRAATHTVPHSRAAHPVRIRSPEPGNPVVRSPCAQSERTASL

How the values were obtained:
[1] = molecular target: T1, Kiss1R (Mus musculus, UniProt Q91V45); assay: ipGTT with ip coinjection of kisspeptin and glucose; type: in vivo
T1 construct: Mouse brain, mouse islets, insulinoma cells, and human islets express Kiss1R; from tissue; host or cells: isolated mouse pancreatic islets (WT / Kiss1Rfl/fl, C57Bl/6 background)
Experimental: Intraperitoneal glucose tolerance (ipGTT) and insulin tolerance (ipITT) tests were performed according to standard protocols (Song et al., 2013; Song et al., 2011). After 9 am-3 pm fasting, animals were administered 20% D-glucose (via ip injection), insulin 0.5 U/kg i.p. (Novolin), glucagon (100 μg/kg i.p. (Sigma)). K54 ([…] Gly-Ala-Val-Leu-Val-Gln-Arg-Glu- Lys-Asp-Leu-Pro-Asn-Tyr-Asn-Trp-Asn-Ser-Phe-Gly-Leu-Arg-Phe-NH2 (SEQ ID NO:34), 10 nmol; Calbiochem), or K10 (Tyr-Asn-Trp-Asn-Ser-Phe-Gly-Leu-Arg-Phe-NH2 (SEQ ID NO:35), 10 nmol; Calbiochem) was administered simultaneously with glucose during ipGTT. The glucagon receptor antagonist GAI (N-(3-Cyano-6-(1,1-dimethylpropyl)-4,5,6,7-tetrahydro-1-benzothien-2-yl)-2-ethylbutanamide (Qureshi et al., 2004) and its non-active analogue were administered (50 mg/kg i.p. in DMSO) in HFD fed and Lepr^db/db mice 60 min before i. GTT. Intraperitoneal pyruvate converstion (1 g/kg i.p.) test (ipPCT) in ΔL-Prkar1a mice was performed in the fed state (9 am) to avoid any confounding effects of fasting-induced elevated endogenous glucagon levels. Tail-vein blood was collected at the indicated times in figures for glucose and insulin measurements. Serum insulin was measured using mouse magnetic bead panel (Millipore, Luminex). Plasma for glucagon measurements was drawn from mice in the fed state at 9 am, unless otherwise noted for fasting studies. […]

[2] = molecular target: T1, Kiss1R; assay: Islet cAMP concentrations (ELISA) in response to kisspeptin; type: cell-based
Experimental: For studies with plasma incubation, a final concentration of plasma was 1% or 10% (vol/vol). Plasma was treated with a protease inhibitor cocktail containing 4-(2-Aminoethyl) benzenesulfonyl fluoride hydrochloride (1 mM), Aprotinin (0.8 μM), bestatin (50 μM), (1S,2S)-2-(((S)-1-((4-Guanidinobutyl)amino)-4-methyl-1-oxopentan-2-yl)carbamoyl)cyclopropanecarboxylic acid (15 μM), EDTA (5 μM), leupeptin (20 μM), pepstatin A (10 μM) (Liu et al., 2013) (Thermo-Fisher), K54, K10, E4 were added at the concentrations indicated in the relevant figures. Islets were taken in 0.18M HCL/70% ethanol to extract and measure total islet insulin content. cAMP concentrations were measured in islet extracts using ELISA (Enzo Life Sciences).

[3] = molecular target: T1, Kiss1R; assay: Glucose stimulated insulin secretion (GSIS) from cultured mouse islets, static incubation; type: cell-based; set-up: GSIS at very high kisspeptin concentration: dose or concentration left out as unconfirmed
Experimental: Isolated Islet Studies. Islet isolation was performed by collagenase digestion, gradient centrifugation, and three rounds of microscope-assisted manual picking of islets. Static incubation studies were conducted as previously described with 20 handpicked, equal-sized islets were studied in each group (Song et al., 2011). After overnight culture (37_C, 5% CO2, and 95% O2 in humid chamber) of isolated islets in RPMI 1640 (Mediatech) containing 5 mM glucose, 1% each Na-Pyruvate, HEPES, Penicillin/Streptomycin, and 0.2% BSA, islets were switched to either 10 or 20 mM glucose containing RPMI 1640. Where indicated, Kisspeptin-10 (0-100 nM, and […]), E4 (10 nM), or vehicle (PBS) was added. After 30 min incubation glucose concentrations, supernatant was taken for insulin measurements and pelleted islets were taken in acid ethanol (0.18M HCl in 70% ethanol) for insulin measurements in islets (ELISA, Alpco). Islet protein concentration was measured using the BCA method (Thermo Fisher). Dose response curves of GSIS inhibition by Kisspeptin-54 or Kisspeptin-10 (0-100 nM) to serve as a functional bioassay for plasma kisspeptin1 activity performed at six separate times provided intra-assay and interassay coefficient of variations of 7.3% and 9.2%, respectively.
Islet studies. Islet isolation was performed by collagenase digestion, gradient centrifugation and three rounds of microscope-assisted manual picking of islets (Song et al., 2011). Static incubation studies were conducted as previously described with 20 hand-picked equalized islets were studied in each group. Islets were cultured in RPMI 1640 medium (Invitrogen) containing 10 or 20 mM D-glucose (as indicated) and supplemented with 0.2% bovine serum albumin, 1% each Na-Pyruvate, HEPES, Penicillin/Streptomycin. […] Islet protein concentration was measured using the BCA method (Thermo Fisher).
Insulin secretion during static incubation. […] Islet protein concentration was measured using the BCA method (Thermo Fisher). […]

[4] = molecular target: T1, Kiss1R; assay: Islet perifusion assay, first and second phase GSIS; type: cell-based; details: isolated mouse islets
Experimental: Perifusion studies were performed as previously published (Song et al., 2013; Song et al., 2011) with slight modifications. The perifusate was Krebs ringer buffer (KRB) (37 C, pH 7.4) containing 0.2% BSA fraction V, 24 mM sodium bicarbonate and was gassed with 95% air and 5% CO2. Perifusion (1 ml/min) occurred for the first 30 minutes with a KRB containing 3 mM glucose for equilibration, after which time the perifusate was collected in 1 ml fractions. After additional 10 minutes, glucose in the perifusate was increased to 10 mM. Where indicated, K10 (10 nM) or E4 (10 nM) was added to the perifusate. Insulin was measured in selected individual eluent fractions at 30, 35, 40, 42, 45, 50, 55, 60 min (Alpco ELISA). The first 10 minutes after increasing glucose was defined as first phase, the period thereafter was defined as second phase of insulin secretion. At the end of the perifusion protocol, 30 mM KCL was administered into the perifusate to depolarize β-cells. Insulin levels were normalized to total islet protein, which was spectrophotometrically determined (Eppendorf) after completion of the perifusion protocol.

- islet cAMP production in response to exendin-4 (E4) ([2]; Kiss1Rfl/fl (WT) islets): reduces E4-stimulated cAMP levels
- islet cAMP concentrations ([2]; WT mouse islets, 10 mM glucose, 10 nM): reduced cAMP production
- E4-potentiated GSIS, first and second phase [4]: suppressed
- first (0-10 min after glucose stimulation) and second phases of GSIS ([4]; 10 mM glucose): suppressed
Substance: Tyr-Asn-Trp-Asn-Ser-Phe-Gly-Leu-Arg-Phe-NH2 [K10]
- in vivo GSIS in control (Kiss1rfl/fl, WT) mice ([1]; 10 nmol ip with glucose during ipGTT): equally effective in suppressing GSIS; also recorded: suppressed GSIS
- glucose tolerance in WT mice ([1]; acute administration, 10 nmol ip): impaired glucose tolerance
- GSIS at very high kisspeptin concentration ([3]; Kiss1Rfl/fl and Panc-DKiss1R islets): GSIS stimulation from both Kiss1Rfl/fl and Panc-DKiss1R islets
- GSIS from Panc-DKiss1R islets ([3]; islets lacking Kiss1R, nanomolar concentrations): resistant to K10 mediated GSIS suppression
- GSIS from Kiss1Rfl/fl (WT) mouse islets ([3]; static incubation, nanomolar concentrations (0-100 nM), 10 or 20 mM glucose): equally effective in suppressing GSIS; also recorded: suppressed GSIS

“Also recorded” adds a separate entry of the source.
